Results on 2 molecules are retold here after PMC9503009, “Determining Ligand and Ion-Induced Conformational Changes in Serotonin Transporter with Its Fluorescent Substrates” (International Journal of Molecular Sciences, 2022).

One assay has as its target WT-SERT (Rattus norvegicus, UniProt P31652). Conditions: 25 μg/mL digitonin. As for the experimental part: After 3 × rapid washing with KRH buffer, APP^+ or ASP^+ accumulation was measured as described under “Materials and Methods”. […] These representative images were parallelly acquired from one experiment. […] After 3 × washing, ASP^+ binding to the cell membrane was measured as described under “Materials and Methods”. […] (D) The effects of MTSET on ASP^+ binding of S277C/X5C and X5C. […] After 3 × rapid washing, ASP^+ binding was measured as described under “Materials and Methods”.
The cells stably expressing SERT-WT or mutants were wet mounted on polylysine-coated glass slides and applied for indicated treatments. In brief, the cells were washed twice with 500 μL KRH buffer containing 20 mM HEPES, pH 7.4, 120 mM NaCl, 1.3 mM KCl, 2.2 mM CaCl2, 1.2 mM MgSO4, and 0.1% (w/v) glucose. APP^+ or ASP^+ accumulation was measured by adding 500 μL KRH buffer containing 2 μM APP^+ or 10 μM ASP^+ and incubating for 5 min at 22 °C. […] The extent of APP^+ or ASP^+ accumulated in the cells was determined with confocal imaging analysis.
Images were acquired at 22 °C using a 20 or 60 × water immersion objective with the Zeiss LSM 900 confocal microscope. […] APP^+ fluorescence was captured at 490–565 nm and ASP^+ fluorescence at 600–650 nm. Images were analyzed using National Institutes of Health ImageJ v1.53q. Fluorescence intensity in each cell was counted and normalized to the cell area (mean fluorescence). […]

The next assay deals with T1, SERT Y107C/C109A (Rattus norvegicus, UniProt P31652, C109A/Y107C).
T1 construct: expressed in transfected cells
Put plainly: MTSET inhibition of APP+ uptake in live cells (extracellular pathway cysteine accessibility). In kind it is cell-based. The conditions noted are these: MTSET 0.01 mM, ligand 10 μM, 22 °C, 15 min. Here is the method: (§1) Figure 3 Reactivity of the extracellular cysteine mutants with MTSET. (A) MTSET concentration-dependent inhibition of APP^+ uptake. The cells stably expressing C109A, Y107C/C109C, or S404C/C109A were incubated for 15 min with indicated concentrations of MTSET. The MTSET concentration giving half-maximal inhibition of APP^+ accumulation in the cells was used to calculate inactivation rate constants as plotted in (B). […] Representative images of APP^+ uptake by C109A, Y107C/C109A, or S404C/C109A under various MTSET concentrations were shown in Supplemental Figure S1. […] (B) Rate constants of MTSET inhibition of APP^+ uptake. At the half-maximal concentration, the half-time is the assay time (15 min) and the first-order rate constant is 7.7 × 10^−4 s^−1. […]
(A) MTSET concentration-dependent inhibition of APP^+ uptake. […] After washing to remove excess MTSET and ligands, APP^+ uptake was measured as described under “Materials and Methods”. […]
The cells stably expressing Y107C/C109A or S404C/C109A were preincubated with indicated ligands and MTSET at a concentration of 0.01 mM for Y107C/C109A or 0.002 mM for S404C/C109A at 22 °C for 15 min, respectively. […] APP^+ uptake was measured as described under “Materials and Methods”. […] Asterisks and hashtags indicate statistically significant changes (p < 0.05) in the accumulated APP^+ fluorescence compared with the corresponding control (MTSET alone). […]

For the next assay, the target named is T2, SERT S404C/C109A (Rattus norvegicus, UniProt P31652, C109A/S404C).
T2 construct: expressed in transfected cells
The assay is described as above. Type of assay: cell-based. Conditions: MTSET 0.002 mM, ligand 10 μM, 22 °C, 15 min. Here is the method:
as §1, with “uptake.” for “uptake. At the half-maximal concentration, the half-time is the assay time (15 min) and the first-order rate constant is 7.7 × 10^−4 s^−1.”
The cells stably expressing Y107C/C109A or S404C/C109A were preincubated with indicated ligands and MTSET at a concentration of 0.01 mM for Y107C/C109A or 0.002 mM for S404C/C109A at 22 °C for 15 min, respectively. […] APP^+ uptake was measured as described under “Materials and Methods”. […] Asterisks and hashtags indicate statistically significant changes (p < 0.05) in the accumulated APP^+ fluorescence compared with the corresponding control (MTSET alone).
Accessibility of the cysteine residues in the extracellular pathway was measured by reactivity of Y107C/C109A and S404C/C109A mutants with MTSET. […] The extent of APP^+ accumulated in the cells was determined by confocal imaging analysis in the live cells. […]

In the case of `C[C@@H]1CC[C@@]2(OC1)O[C@H]1[C@@H](O)[C@H]3[C@@H]4CC[C@H]5C[C@@H](O[C@@H]6O[C@H](CO)[C@H](O[C@@H]7O[C@H](CO)[C@@H](O)[C@H](O[C@@H]8OC[C@@H](O)[C@H](O)[C@H]8O)[C@H]7O[C@@H]7O[C@H](CO)[C@H](O)[C@H](O[C@@H]8O[C@H](CO)[C@@H](O)[C@H](O)[C@H]8O)[C@H]7O)[C@H](O)[C@H]6O)[C@H](O)C[C@]5(C)[C@H]4CC[C@]3(C)[C@H]1[C@@H]2C` [digitonin], on WT-SERT (2 μM APP+), the “APP+ fluorescence in the cells” value was “only a trace of APP^+ fluorescence detected”. Moreover, the “ASP+ fluorescence retained in the cells” value on WT-SERT (10 μM ASP+) is recorded as “more than 60%”.

`Fc1ccc([C@@H]2CCNC[C@H]2COc2ccc3c(c2)OCO3)cc1` [paroxetine]: the “effect of ligand on reactivity with MTSET” value on SERT Y107C/C109A and at SERT S404C/C109A was “markedly increased the reactivity” each time.
